Screening data deposited in PubChem by Broad Institute.
CDK5 inh – inhibitors of human CDK5/p35 kinase, primary screen, biochemical, single concentration; Recombinant CDK5/p35, ADP-Glo luminescence, 60 min; hit rate 0.01% among 330,000; AID 488839, 2010; inhibition, % at 10 µM;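 active = highest replicate inhibition of at least 50% and at least 75% of replicates reaching 50%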;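 note: plate controls were DMSO neutral control for no effect and GW8510 at 10 µM for full effect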
Rtt109 Vps75 – inhibitors of C. albicans Rtt109/Vps75 HAT, primary screen, biochemical, ThioGlo CoA-SH fluorescence, plate reader; Histone acetyltransferase RTT109 (Candida albicans (strain SC5314 / ATCC MYA-2876)), …; purified Rtt109/Vps75, 4 h; inhibition, % at 34.9 µM; hit rate 0.16% among 330,000; AID 540336, 2011;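 active = inhibition of at least 50% in every replicate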
Statin myotox sup – suppressors of statin myotoxicity in C2C12 myotubes, primary screen, cell-based, single point, plate reader. C2C12 myotubes + simvastatin, ATP luminescence, 48 h; scaled: DMSO 0, geranylgeraniol control 100. rescue of ATP level, % at 7.49 µM. hit rate 0.78% among 330,000;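 active = mean ATP rescue above about 67%, or every replicate alone reaching that limit, limit read from the data, passing the limit was not always enough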;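 note: myotubes were challenged with 10 µM simvastatin during compound exposure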
Cneo AK release – Cryptococcus neoformans cell lysis inducers, primary screen, AK release luminescence, single concentration; C. neoformans lysis, adenylate kinase release luminescence, 4 h; normalised: neutral wells 0, clomiphene wells 100; lysis activity, % at 15 µM; hit rate 0.2% among 360,000;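 active = mean lysis activity across replicates of at least 80%, whatever share of replicates individually reach that level; inactive = mean lysis activity below 80%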
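Signal: Adenylate kinase release luminescence | Assay system: Log-phase Cryptococcus neoformans yeast cells | Input: Cells at 5 × 10^6 per mL | Buffer or medium: Fresh YPD growth medium | Compound: Single dose | Schedule: Static 4 h at 37 °C with compound, 1 h detection | Controls: Clomiphene | Read-out: Luminescence rise reflecting yeast cell lysis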
UUG fidelity – modulators of yeast start codon fidelity, primary screen, whole organism, S. cerevisiae, single point, plate reader; S. cerevisiae UUG-firefly luciferase reporter, luminescence/redox ratio; activity score, % at 18.7 µM; 0.13% of 350,000 active; AID 602363, 2012;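 active = replicate mean at a twofold rise or more, about +100% in these data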;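 also: firefly luciferase made from a UUG start codon reports start codon fidelity; reporter light over untreated wells divided by growth signal over untreated wells; some hits fall short of that in this replicate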
* marks the source's active call; other numbers are inactive results; · = no result. Shown are actives, neighbours in structure and some others; about 1% of the full set was active somewhere.

Start of the listing, in advance (2 entries):
Sequence of screens – CDK5 inh | Rtt109 Vps75 | Statin myotox sup | Cneo AK release | UUG fidelity
CCS(=O)(=O)N1CCN(S(=O)(=O)c2ccc(Cl)s2)CC1
 : 2 | 6 | · | 0 | 7
Cc1ccc(SCCNC(=S)Nc2ccc(C)c(C)c2)cc1
 : 0 | 5 | -8 | 4 | -24

The whole of this part, from the first entry:
Sequence of screens – CDK5 inh | Rtt109 Vps75 | Statin myotox sup | Cneo AK release | UUG fidelity
CCS(=O)(=O)N1CCN(S(=O)(=O)c2ccc(Cl)s2)CC1
 : 2 | 6 | · | 0 | 7
Cc1ccc(SCCNC(=S)Nc2ccc(C)c(C)c2)cc1
 : 0 | 5 | -8 | 4 | -24
Cc1ccc(SCCNC(=S)Nc2cc(C)ccc2C)cc1
 : 1 | 4 | 73* | 34 | -21
COC(=O)CSC1=C(C#N)C(c2ccc3c(c2)OCO3)C2=C(CCCC2=O)N1 (configuration not stated)
 : 0 | -5 | 3 | -5 | -6
COC(=O)C1=C(N)N(c2ccccc2C(F)(F)F)C2=C(C(=O)CCC2)C1c1ccc2c(c1)OCO2 (configuration not stated)
 : 2 | -2 | 93* | 0 | -7
O=C(C[C@@H]1CC[C@H]2[C@@H](COC[C@H](O)CN2Cc2ccc(Oc3ccccc3)cc2)O1)Nc1nccs1
 : · | · | 55 | 88* | ·
O=C(C[C@H]1CC[C@H]2[C@@H](COC[C@@H](O)CN2Cc2ccc(Oc3ccccc3)cc2)O1)Nc1nccs1
 : · | · | 18 | 3 | ·
O=C(C[C@H]1CC[C@H]2[C@@H](COC[C@H](O)CN2Cc2cccc(Cl)c2)O1)Nc1nccs1
 : · | · | 24 | 115* | ·
O=C(C[C@H]1CC[C@@H]2[C@H](COC[C@@H](O)CN2Cc2ccc(Oc3ccccc3)cc2)O1)N1CCCCC1
 : · | · | 71* | 4 | 10
CC(=O)Nc1nnc(SCc2cccc(F)c2)s1
 : -5 | 3 | 87* | 0 | -16
COc1ccccc1N1CCN(C(=O)C(=O)N/N=C/c2cccc(O)c2)CC1
 : 1 | -2 | 96* | -1 | -3
COc1cc(C)c(Cl)cc1S(=O)(=O)NCCN1CCOCC1
 : 1 | -1 | 123* | 3 | 46
CC1CCN(C(=O)c2cc3nc(-c4ccccc4)cc(-c4ccccc4)n3n2)CC1
 : 0 | -21 | 83* | 0 | -15
O=C1C=C(c2ccccc2)C[C@@H](c2ccc3c(c2)OCO3)C1
 : -1 | 7 | 8 | -3 | -4
O=C1C=C(c2cccc(Cl)c2)C[C@@H](c2ccc3c(c2)OCO3)C1
 : 1 | -10 | 134* | -4 | 4
C[C@H]1CN([C@@H](C)CO)C(=O)Cc2cc(NC(=O)CCCCCC(=O)Nc3ccccc3N)ccc2O[C@H]1CN(C)S(=O)(=O)c1cn(C)cn1
 : · | · | -7 | -4 | 5
Cc1ccc(/C=N/N2CCN(Cc3ccc(Cl)cc3)CC2)o1
 : -1 | -4 | 81* | -1 | -20
Clc1ccc(CN2CCN(/N=C/c3ccco3)CC2)cc1
 : 1 | 3 | 5 | 0 | -9
CCN(CC)S(=O)(=O)c1ccc(-n2c(=O)c(C(C)C)c(C)n2C)cc1
 : -2 | 0 | 87* | 2 | -20
Cc1c(C(C)C)c(=O)n(-c2ccc(S(=O)(=O)NC(C)C)cc2)n1C
 : 1 | 1 | -2 | 0 | -14

Part of the list above, field by field:
> O=C1C=C(c2cccc(Cl)c2)C[C@@H](c2ccc3c(c2)OCO3)C1
  CDK5 inh: 1
  Rtt109 Vps75: -10
  Statin myotox sup: 134*
  Cneo AK release: -4
  UUG fidelity: 4
> C[C@H]1CN([C@@H](C)CO)C(=O)Cc2cc(NC(=O)CCCCCC(=O)Nc3ccccc3N)ccc2O[C@H]1CN(C)S(=O)(=O)c1cn(C)cn1
  CDK5 inh: ·
  Rtt109 Vps75: ·
  Statin myotox sup: -7
  Cneo AK release: -4
  UUG fidelity: 5

Next part:
Sequence of screens – CDK5 inh | Rtt109 Vps75 | Statin myotox sup | Cneo AK release | UUG fidelity
O=C(O)CSc1nc(-c2ccc(Cl)cc2)nc2c1oc1ccccc12
 : 0 | 10 | · | 2 | -14
O=C(O)CSc1nc(-c2ccccc2)nc2c1oc1ccccc12
 : 0 | 17 | 120* | -6 | -17
COc1cccc(C(=O)NCC(=O)N2CCC(C)CC2)c1
 : 2 | -3 | 99* | -1 | -18
O=C(CNC(=O)c1ccc(F)cc1)c1ccc(Cl)cc1
 : 0 | 52* | 4 | 0 | -14
C[C@H](CO)N1C[C@H](C)[C@@H](CN(C)C(=O)Nc2ccc(F)cc2)Oc2ccc(NC(=O)C3CC3)cc2C1=O
 : · | · | 32 | 1 | ·
CC1C=NC(S(=O)(=O)N2CC[C@@H]3[C@H](CO)N(C)c4ccc(-c5ccc(F)cc5)cc4[C@@H]32)=N1 (some centres not stated)
 : · | · | 20 | 13 | -13
O=S1(=O)CCN2C(c3ccco3)=CSC2=N1
 : 1 | -1 | 104* | 1 | -1
Cc1onc(-c2ccncc2)c1C(=O)O
 : 0 | 3 | 106* | -3 | -22
C[C@@H]1CN([C@@H](C)CO)C(=O)c2cc(NC(=O)CCC(F)(F)F)ccc2O[C@H]1CN(C)C(=O)Nc1ccc(C(F)(F)F)cc1
 : · | · | -9 | 2 | 11
Cc1ccc(S(=O)(=O)c2c(CO)c(-c3ccccc3)nn2C)cc1
 : 1 | 3 | · | · | ·
